# Molecular target: T1, PDK-1 (Homo sapiens, UniProt O15530)
# T1 sequence (O15530 1-556): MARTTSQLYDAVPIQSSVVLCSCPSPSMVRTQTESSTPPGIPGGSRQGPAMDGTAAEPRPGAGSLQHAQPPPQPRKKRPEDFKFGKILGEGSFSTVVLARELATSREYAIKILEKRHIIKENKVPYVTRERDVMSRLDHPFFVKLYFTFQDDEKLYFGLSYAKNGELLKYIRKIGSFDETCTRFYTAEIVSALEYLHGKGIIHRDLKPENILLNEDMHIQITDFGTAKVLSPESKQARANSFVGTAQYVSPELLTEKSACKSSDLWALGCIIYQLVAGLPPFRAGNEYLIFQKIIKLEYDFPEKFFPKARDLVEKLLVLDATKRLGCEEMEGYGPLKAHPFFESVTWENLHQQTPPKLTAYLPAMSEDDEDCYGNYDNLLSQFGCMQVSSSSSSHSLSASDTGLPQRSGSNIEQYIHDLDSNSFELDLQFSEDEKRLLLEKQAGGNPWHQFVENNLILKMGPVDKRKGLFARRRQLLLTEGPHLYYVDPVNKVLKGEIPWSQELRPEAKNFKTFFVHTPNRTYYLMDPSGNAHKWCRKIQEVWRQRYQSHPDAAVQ
# Assay: PDK-1 kinase inhibition ELISA assay (phosphorylation of His6-tagged SGK1 S422D by PDK-1)
# Assay type: biochemical
# Details: PDK-1 ELISA, Table 11
row,IC50 [nM],SMILES
1,36,"Nc1nc(-c2cncc(OC[C@@H](N)Cc3ccccc3)c2)cc2c1cnc1cc(C#CCCn3ccnc3)ccc12 [Ia-5, 2-(5-{[(2S)-2-Amino-3-phenylpropyl]oxy}pyridin-3-yl)-8-[4-(1H-imidazol-1-yl)but-1-yn-1-yl]benzo[c]-2,7-naphthyridin-4-amine]"
2,36,"COc1cc2ncc3c(N)nc(-c4cncc(OC[C@@H](N)Cn5cc(-c6nccs6)cn5)c4)cc3c2cc1OC [Ib-92, 2-[5-({(2S)-2-amino-3-[4-(1,3-thiazol-2-yl)-1H-pyrazol-1-yl]propyl}oxy)pyridin-3-yl]-8,9-dimethoxybenzo[c][2,7]naphthyridin-4-amine]"
3,36,"COc1cc2ncc3c(N)nc(-c4cncc(OC[C@@H](N)COc5cccc(C#N)c5)c4)cc3c2cc1OC [Ib-155, 3-{[(2S)-2-amino-3-{[5-(4-amino-8,9-dimethoxybenzo[c][2,7]naphthyridin-2-yl)pyridin-3-yl]oxy}propyl]oxy}benzonitrile]"
4,36,"COc1cc2ncc3c(N)nc(-c4ccc5[nH]cnc5c4)cc3c2cc1OC [Ib-244, 2-(1H-benzimidazol-5-yl)-8,9-dimethoxybenzo[c][2,7]naphthyridin-4-amine]"
